Results as given in patent US20180207228A1, “PEPTIDE COMBINATIONS AND USES THEREOF FOR TREATING GRASS ALLERGY” (ALK-Abelló A/S, priority 2015, published 2018).

Key:
Assay type in all cases: cell-based, human
[1] = test system: allergen specific T cells; experiment: T cell proliferation assay (72 h) on donor derived T cell lines (TCL02/TCL03); conditions: for donor coverage, proliferation: modified and parent peptides 2 μg/ml; for Proliferation % donor coverage (TCL-02 DK1): T cell lines TCL-02 DK1, 30 donors, hit criteria SI>=2, CPM>=1000; for Proliferation strength (TCL-02 DK1): T cell lines TCL-02 DK1, strength of response (average relative magnitude)
[2] = test system: grass allergic donor derived T cell lines (TCL-02 DK-2); experiment: Cross-reactivity of homologue peptides, proliferation on TCL02-DK2 (Study XR1); conditions: 2 μg/ml, TCL02-DK2, 21 donors
[3] = test system: release of IL-5 upon T cell activation; experiment: Fluorospot assay, IL-5 release (DK1-TCL01, US1-TCL01); conditions: head prints TCL-02 DK1; text: 25 TCL-01 DK1 lines
[4] = test system: release of IFN-γ upon T cell activation; experiment: Fluorospot assay, IFN-γ release (DK1-TCL01, US1-TCL01); conditions: head prints TCL-02 DK1; 17 TCL-01 DK1 lines

SMILES	donor coverage, proliferation ([1]; TCL03-DK1 and DK2, 27 donors) [%]	experimental cross-reactivity [2]	Proliferation % donor coverage (TCL-02 DK1) [1] [%]	Proliferation strength (TCL-02 DK1) [1]	IL-5-Fluorospotr % donor coverage (TCL-02 DK1) [3] [%]	IFN-gamma % donor coverage (TCL-02 DK1) [4] [%]	T cell coverage of modified peptide compared to the parent peptide ([1]; 2 μg/ml, TCL03-DK1 and DK2, 27 donors)
CSCC[C@H](NC(=O)CNC(=O)[C@H](CCCCN)NC(=O)[C@H](CCC(=O)O)NC(=O)[C@@H](NC(=O)[C@H](CC(C)C)NC(=O)[C@H](Cc1ccccc1)NC(=O)[C@H](CCCNC(=N)N)NC(=O)[C@H](Cc1ccccc1)NC(=O)[C@H](CC(N)=O)NC(=O)[C@H](Cc1ccccc1)NC(=O)[C@@H]1CCCN1C(=O)CNC(=O)[C@H](CCC(N)=O)NC(=O)[C@H](CC(C)C)NC(=O)[C@@H]1CCCN1C(=O)[C@@H](N)CCC(=O)O)[C@@H](C)O)C(=O)N[C@@H](CCCCN)C(=O)N[C@@H](CC(N)=O)C(=O)N[C@H](C(=O)O)C(C)C [peptide 216]	40	showed cross-reactivity					
CC[C@H](C)[C@H](N)C(=O)N[C@@H](CC(N)=O)C(=O)N[C@H](C(=O)NCC(=O)N[C@@H](Cc1ccccc1)C(=O)N[C@@H](CCCCN)C(=O)N[C@@H](C)C(=O)N[C@@H](C)C(=O)N[C@H](C(=O)N[C@@H](C)C(=O)N[C@@H](C)C(=O)N[C@@H](C)C(=O)N[C@@H](C)C(=O)NCC(=O)N[C@H](C(=O)O)C(C)C)C(C)C)C(C)C [compound 114]			56.67	11.10	37.50	0.00	
CC(C)[C@H](NC(=O)[C@H](C)NC(=O)[C@H](C)NC(=O)[C@H](CCCCN)NC(=O)[C@H](Cc1ccccc1)NC(=O)CNC(=O)[C@H](C)NC(=O)[C@@H](N)CC(N)=O)C(=O)N[C@@H](C)C(=O)N[C@@H](C)C(=O)N[C@@H](C)C(=O)N[C@@H](C)C(=O)N[C@H](C(=O)N[C@H](C(=O)N1CCC[C@H]1C(=O)O)C(C)C)C(C)C [compound 124]			46.67	9.50	25.00	0.00	
CC[C@H](C)[C@H](NC(=O)[C@@H](NC(=O)[C@H](CCC(N)=O)NC(=O)[C@H](CC(C)C)NC(=O)[C@H](CCC(=O)O)NC(=O)CNC(=O)[C@H](C)NC(=O)[C@@H]1CCCN1C(=O)[C@@H](NC(=O)[C@@H](N)C(C)C)[C@@H](C)CC)C(C)C)C(=O)N[C@@H](CCC(=O)O)C(=O)N[C@@H](CCCCN)C(=O)N[C@H](C(=O)N[C@@H](CC(=O)O)C(=O)N[C@@H](C)C(=O)N[C@@H](C)C(=O)N[C@@H](Cc1ccccc1)C(=O)N[C@@H](CCCCN)C(=O)N[C@H](C(=O)N[C@@H](C)C(=O)O)C(C)C)C(C)C [compound 82]			20.00	2.60	4.00	0.00	
CC[C@H](C)[C@H](NC(=O)CNC(=O)[C@@H](N)CO)C(=O)N[C@@H](C)C(=O)N[C@@H](Cc1ccccc1)C(=O)NCC(=O)N[C@@H](CO)C(=O)N[C@@H](CCSC)C(=O)N[C@@H](C)C(=O)N[C@@H](CCCCN)C(=O)N[C@@H](CCCCN)C(=O)NCC(=O)N[C@@H](CC(=O)O)C(=O)N[C@@H](CCC(=O)O)C(=O)N[C@@H](CCC(N)=O)C(=O)O [compound 117]			31.03				
CSCC[C@H](NC(=O)CNC(=O)[C@H](CCCCN)NC(=O)[C@H](CCC(=O)O)NC(=O)[C@@H](NC(=O)[C@H](CC(C)C)NC(=O)[C@H](Cc1ccccc1)NC(=O)[C@H](CCCNC(=N)N)NC(=O)[C@H](Cc1ccccc1)NC(=O)[C@H](CC(N)=O)NC(=O)[C@H](Cc1ccccc1)NC(=O)[C@@H]1CCCN1C(=O)CNC(=O)[C@H](CCC(N)=O)NC(=O)[C@H](CC(C)C)NC(=O)[C@@H]1CCCN1)[C@@H](C)O)C(=O)N[C@@H](CCCCN)C(=O)N[C@@H](CC(N)=O)C(=O)N[C@H](C(=O)O)C(C)C [peptide 272]	18						Markedly reduced T cell coverage
